Experiments:
[1] = Half-life of ADR destruction by UVA light in the presence of test compounds (decrease in absorbance at 480 nm); assay type: physicochemical; settings: for Half-Life of ADR Destruction, 100 μM Test Compound / Half-Life of ADR Destruction, 100 μM Test Compound and 0.5 μM Riboflavin: UVA light; for half-life (FIG. 32): compound alone; for half-life (FIG. 32) in the presence of riboflavin: compound in combination with riboflavin
[2] = two 15 W tubes emitting 365 nm light, no photosensitizer; cited from earlier work
[3] = 100 μM test compound with 0.5 μM riboflavin

Row | Compound | Half-Life of ADR Destruction, 100 μM Test Compound ([1]; 100 μM test compound alone) | Half-Life of ADR Destruction, 100 μM Test Compound and 0.5 μM Riboflavin [1, 3] | also measured
1 | O=S(=O)(c1ccccc1)c1ccccc1 | 43.0 min | 37.6 min | 
2 | O=C(c1ccccc1)c1cccnc1 | 13.7 min | 12.0 min | 
3 | O=CC=Cc1ccccc1 | 50.2 min | 50.2 min | 
4 | Nc1cccc([N+](=O)[O-])c1 |  | 27.4 min | 
5 | Cc1nccc2c1[nH]c1ccccc12 | 13.7 min | 12.5 min | 
6 | Doxorubicin HCl |  |  | half-time for inactivation [2]: 9 h
7 | Nc1ccc(Cc2ccc(N)cc2)cc1 |  | 50.2 min | 
8 | Nc1ccccc1-c1ccccc1 |  | 15.8 min | 
9 | Nc1c(F)cc(F)cc1F |  | 30.1 min | 
10 | COc1ccccc1N |  | 13.1 min | 
11 | N#CCc1c[nH]c2ccccc12 |  | 8.36 min | 
12 | O=CCCc1ccccc1 | 50.2 min | 50.2 min | 
13 | CC(=O)c1ccccc1N |  | 15.1 min | 
14 | Nc1cccc(-c2ccccc2)c1 | 50.2 min | 21.5 min | 
15 | COc1cc(C=CC(=O)O)cc(OC)c1 | 50.2 min | 5.28 min | 
16 | CN(C)n1cccc1 |  | 30.7 min | 
17 | OC(=S)Cc1ccccc1 | 37.6 min | 27.4 min | half-life (FIG. 32) [1]: 37.6; half-life (FIG. 32) in the presence of riboflavin [1]: 27.4
18 | O=C(O)c1ccc2c(c1)C(=O)c1ccccc1C2=O | 1.64 min | 1.57 min | 
19 | daunomycin |  |  | half-time for inactivation [2]: 9 h
20 | O=C(O)COc1ccccc1 | 33.5 min | 30.1 min | half-life (FIG. 32) [1]: 33.5; half-life (FIG. 32) in the presence of riboflavin [1]: 30.1

Row | Compound | Half-Life of ADR Destruction, 100 μM Test Compound ([1]; 100 μM test compound alone) | Half-Life of ADR Destruction, 100 μM Test Compound and 0.5 μM Riboflavin [1, 3] | also measured
21 | Oc1ccccc1 |  | 50.2 min | 
22 | Nc1ccccc1C(=O)O |  | 75.3 min | 
23 | c1ccc2c(c1)oc1ccccc12 |  | 50.2 min | 
24 | Cc1ccc(N)cc1 |  | 21.5 min | 
25 | CC(=O)c1ccc(N)cc1 |  | 37.6 min | 
26 | c1ccc2c(c1)CCNC2 |  | 75.3 min | 
27 | c1ccc2[nH]ncc2c1 |  | 33.5 min | 
28 | c1ccc2c(c1)[nH]c1cnccc12 | 25.1 min | 29.3 ± 5.9 min | 
29 | Cc1cccc(N)c1C |  | 27.4 min | 
30 | Nc1ccc(C(=O)O)c(O)c1 |  | 60.2 min | 
31 | CN(C)c1ccc(N(C)C)cc1 |  | 301.0 min | 
32 | O=C(O)C1c2ccccc2Oc2ccccc21.O=C(O)c1ccccc1 | 10.8 min | 8.36 min | 
33 | Nc1ccccc1[N+](=O)[O-] | 60.2 min | 27.4 min | 
34 | Nc1ccc(N)cc1 |  | 301.0 min | 
35 | Brc1ccc2[nH]c3ccc(Br)cc3c2c1 |  |  | Half-Life of ADR Destruction, 100 μM Test Compound and 0.5 μM Riboflavin ([1]; with 0.5 μM riboflavin, +4% DMSO): 50.2 min
36 | O=c1c2ccccc2[nH]c2ccccc12 |  |  | Half-Life of ADR Destruction, 100 μM Test Compound ([1]; test compound alone, +8% DMSO): 20.1 min; Half-Life of ADR Destruction, 100 μM Test Compound and 0.5 μM Riboflavin ([1]; with 0.5 μM riboflavin, +8% DMSO): 15.1 min
37 | O=C(O)c1ccc(O)c(O)c1 |  | 100.3 min | 
38 | CN(C)c1ccc(N)cc1 |  | 301.0 min | 
39 | O=Cc1ccccc1 | 60.2 min | 50.2 min | 
40 | Cn1c(=O)[nH]c(=O)c2[nH]cnc21 | 50.2 min | 16.7 min | 

From patent publication US20010056085A1, “Methods of using vesicant drug formulations” (priority 1996, published 2001)
